Measurements reported in ChEMBL document CHEMBL5042488, “Synthesis, biological, and structural explorations of a series of μ-opioid receptor (MOR) agonists with high G protein signaling bias” (Eur J Med Chem, 2022).

Amino acid sequences for entries named in this document (tags omitted).
UniProt P35372, whole entry: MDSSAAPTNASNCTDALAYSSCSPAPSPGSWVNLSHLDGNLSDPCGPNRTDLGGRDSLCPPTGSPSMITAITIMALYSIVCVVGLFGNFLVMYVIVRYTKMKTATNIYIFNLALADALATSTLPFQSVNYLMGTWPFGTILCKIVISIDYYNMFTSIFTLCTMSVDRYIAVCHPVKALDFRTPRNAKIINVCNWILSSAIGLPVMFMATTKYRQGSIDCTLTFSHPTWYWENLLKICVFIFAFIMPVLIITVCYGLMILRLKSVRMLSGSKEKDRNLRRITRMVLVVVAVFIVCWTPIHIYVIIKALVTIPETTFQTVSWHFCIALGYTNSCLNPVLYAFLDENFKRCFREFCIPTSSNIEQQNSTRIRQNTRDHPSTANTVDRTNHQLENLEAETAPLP

Columns and labels:
Mu-type opioid receptor [1] = target: T1, Mu-type opioid receptor (Homo sapiens, UniProt P35372); test: Agonist activity at mu opioid receptor (unknown origin) assessed as maximal cAMP level incubated for 40 mins by spectrophotometry relative to DAMGO; type: functional; details: filed as agonist
Mu-type opioid receptor [2] = target: T1, Mu-type opioid receptor; test: Agonist activity at mu opioid receptor (unknown origin) assessed as maximal beta arrestin-2 recruitment incubated for 3 days by PathHunter assay relative to DAMGO; type: functional; details: time 3.0 day

SMILES	Emax (Mu-type opioid receptor [1]) [%]	Emax (Mu-type opioid receptor [2]) [%]
Fc1ccc([C@]2(CCNCc3scc4c3COC4)CCOC3(CCOC3)C2)cc1 (stereo partly specified)	83	3.2
Fc1ccc([C@]2(CCNCc3cccs3)CCOC3(CCOC3)C2)cc1 (stereo partly specified)	80.6	0.5
Fc1ccc([C@]2(CCNCc3scc4c3CCC4)CCOC3(CCOC3)C2)cc1 (stereo partly specified)	97	1
